Data as given in patent US20220144895A1, “DE NOVO DESIGN OF TUNABLE PH-DRIVEN CONFORMATIONAL SWITCHES” (University of Washington, priority 2019, published 2022).

Assay type: physicochemical
Text: Plasmids containing synthetic genes that encode the designed proteins were ordered through Genscript, Inc. (Piscataway, N.J., USA), cloned into the NdeI and XhoI sites of either pET2I-NESG or pET-28b vectors (see table 3). Plasmids were transformed into chemically competent E. coli expression strains BL21(DE3) Star (Invitrogen) or Lemo™21(DE3) (New England Biolabs). Following transformation, single colonies were picked from agar plates and grown overnight in 5 m starter cultures of Luria-Bertani (LB) medium containing 50 μg/mL carbenicillin (for pET21-NESG vectors) or kanamycin (for pET-28b vectors) with shaking at 225 rpm for 12-18 hours at 37° C. 5 ml starter cultures were added to 500 ml TBM-3052 with antibiotic for expression by autoinduction; cells were grown at 37° C. for 4-7 hours and temperature was dropped to 18° C. overnight. After 18-24 hours, cells were harvested by centrifugation for 15 minutes at 5000 ref at 4° C. and resuspended in 20 ml lysis buffer (25 mM Tris pH 8.0 at room temperature, 300 mM NaCl, 20 mM Imidazole).
Cells were lysed by microfluidization in the presence of 1 mM PMSF. Lysates were clarified by centrifugation at 24,000 ref at 4° C. for at least 30 minutes. Proteins were purified by Immobilized metal affinity chromatography (IMAC): supernatant was applied to Ni-NTA (Qiagen) columns pre-equilibrated in lysis buffer. […]

B1: pRO-2-noHis: pRO-2 variant lacking histidine networks, inactive control, SEQ ID NO: 75-76 (protein)
chain: GSEYEIRKALEELKASTAELKRSTASLRASTEELKKNPSEDALVENNRLIVENNAIIVENNRIIAAVLELIVRAIK
- solubility / behaviour in solution: well-behaved in solution
